According to patent publication US6646113:

Tests used:
[1] = target: GST-SMN preincubated with His-SMN (SMN oligomer on beads) (human) (UniProt Q16637); assay: GST pull-down after preincubation with His-SMN, lane 8X
[2] = target: GST-SMN preincubated with His-SMN (SMN oligomer on beads) (human) (UniProt Q16637); assay: GST pull-down after preincubation of GST-SMN with His6-tagged SMN (FIG. 43)
[3] = target: GST-SMN preincubated with His-SMN (SMN oligomer on beads) (human) (UniProt Q16637); assay: GST pull-down after preincubation with His-SMN, lane 4X (bound His-SMN equivalent to GST-SMN)

Sm B protein, in vitro translated and 35S-labeled (from UniProt P14678 1-231)
fold increase of SmB binding against GST-SMN without His-SMN [1]: 30 fold
percent of input bound [1]: > 60 % of input
percent of input bound [2]: 100 % of input
fold increase of SmB binding against GST-SMN without His-SMN [3]: 10 fold
